uPA generation – blocks generation of uPA at the cell surface; AID 540303; cell surface uPA generation assay, qHTS; 0.31% of 330,000 active; Potency, µM (doses to about 38.3 µM), inactives show top-dose activity change, negative = inhibition, hits mostly inhibitors; active means well fitted inhibition curve with a large enough effect; inconclusive means small, poorly fitted or top-dose-only effect; inactive means no such curve, though single readings can be large or run the other way; tested in mouse RAW 264.7 cells; further: potency means the concentration at half of the fitted maximal effect; on the % scale 0 is the no-effect control and ±100 the full control effect; nearly all actives have a fitted effect of over 55% in size
TDP1 cell noCPT – qHTS for Inhibitors of human tyrosyl-DNA phosphodiesterase 1 (TDP1): qHTS in cells in absence of CPT; 15% of 420,000 active; Potency, µM (series often up to 46.2 µM), inactives show at the highest dose activity change, negative = growth inhibition, actives largely listed as inhibitors; DT40 Tdp1-/- hTDP1 cells, no CPT, ATP luminescence, 48 h; further: potency means the concentration at half of the fitted maximal effect; on the % scale 0 is the no-effect control and ±100 the full control effect; nearly all actives have a fitted effect of over 55% in size
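Chicken DT40 Tdp1-/- cells complemented with human TDP1, screened without camptothecin (DMSO vehicle only), 400 cells/well. Compounds pin-transferred, cells incubated at 37 °C for at least 48 hr. Growth read as ATP-dependent luminescence (CellTiter-Glo, 30 min at RT).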
miR-21 FLuc – miR-21 reporter, rising signal | HeLa miR-21 FLuc reporter, luciferase, 48 h | Potency, µM (highest dose often 38.3 µM), for inactives: at the top dose reporter change, positive = more light | 340,000 tested, under 10 active | AID 2288; active = well fitted rising curve with a large enough effect; inconclusive = small, poorly fitted or top-dose-only effect; inactive = no such curve, though single readings can be large or run the other way;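 further: % of control where 0% means no effect; miR-21 action dims this reporter so a rising signal means less miR-21 action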
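Compounds were titrated across several concentrations (up to approximately 40 uM) and incubated 48 hours with HeLa miR-21-FLuc reporter cells (miR-21 target sequence downstream of FLuc, endogenous miR-21). Readout was firefly luciferase luminescence after lytic detection reagent.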
DT40 TDP1 CPT – DT40-hTDP1 cell growth loss with CPT; chicken DT40 Tdp1-/-;hTDP1 cells + 20 nM CPT, ATP luminescence, 48 h; Potency, µM (top dose mostly 46.2 µM), for inactives: at the highest dose activity change, negative = growth inhibition, most hits filed as inhibitors; 12% of 420,000 active; further: potency means the concentration at half of the fitted maximal effect; on the % scale 0 is the no-effect control and ±100 the full control effect; nearly all actives have a fitted effect of over 55% in size
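Cell growth measured by CellTiter-Glo luminescence after a minimum 48 h, 37 C compound exposure with 20 nM CPT in Tdp1-knockout DT40 cells stably expressing hTDP1, seeded 400/well; qHTS titration format.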
TDP1 inh – blocks human tyrosyl-DNA phosphodiesterase 1; recombinant TDP1, AlphaScreen DNA substrate cleavage; Q9NUW8; Potency, µM (series often up to 130 µM), inactives show at the top dose activity change, negative = inhibition, usual class: inhibitors; AID 485290; 0.28% of 350,000 active; further: potency means the concentration at half of the fitted maximal effect; on the % scale 0 is the no-effect control and ±100 the full control effect; nearly all actives have a fitted effect of over 40% in size
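Tdp1 1 nM final; 15 min RT w/ cpd; substrate 15 nM, 5 min; beads 10 ug/ml, 10 min; AlphaScreen read. Neg ctrl: no enzyme.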
* marks the source's active call; other numbers are inactive results; ? = inconclusive; / = no result given. Sampled rows, rich in hits. Any-hit rate of the full collection: about 16%. Unless noted, the call rests on the fitted dose curve; in most records, active means well fitted curve in the direction sought with a large enough effect; inconclusive means small, poorly fitted or top-dose-only effect, or another doubt; inactive means no such curve, though single readings can be large; an effect the other way counts as inactive or inconclusive.

SMILES | uPA generation | TDP1 cell noCPT | miR-21 FLuc | DT40 TDP1 CPT | TDP1 inh
O=S(=O)(c1ccccc1Br)N1CCN(c2nc(-c3ccccc3)nc3ccccc23)CC1 | / | 14.1µM* | / | ? | -0.4%
CC(=O)c1nc(N2CCN(S(=O)(=O)c3ccc(C)cc3)CC2)c2ccccc2n1 | / | ? | / | ? | 3.8%
Cc1ccc(S(=O)(=O)N2CCN(c3nc(-c4cccnc4)nc4ccccc34)CC2)cc1 | / | 11.2µM* | / | 12.6µM* | -3.2%
Cc1ccc(S(=O)(=O)N2CCN(c3nc(-c4ccncc4)nc4ccccc34)CC2)cc1 | / | 11.2µM* | / | -16.4% | -11.4%
Cc1ccc(S(=O)(=O)N2CCN(c3nc(-c4cscn4)nc4ccccc34)CC2)cc1 | / | ? | / | ? | 1.9%
O=S(=O)(c1ccccc1Br)N1CCN(c2nc(-c3cccs3)nc3ccccc23)CC1 | / | ? | / | ? | -0.4%
CC(C)(C)c1ccc(S(=O)(=O)N2CCN(c3nc(-c4ccccc4)nc4ccccc34)CC2)cc1 | / | -23.2% | / | -18.8% | 0.5%
COC(=O)c1nc(N2CCN(S(=O)(=O)c3ccc(C)cc3)CC2)c2ccccc2n1 | / | 17.8µM* | / | ? | 2.2%
O=C(c1ccc(CSCc2ccccc2F)o1)N1CCN(c2ccc(N3CCOCC3)nn2)CC1 | 6.8% | ? | 23.0% | ? | -4.1%
Cc1ccc(S(=O)(=O)N2CCN(c3nc(-c4cnccn4)nc4ccccc34)CC2)cc1 | / | 17.8µM* | / | ? | 1.4%
Cc1ccc(S(=O)(=O)N2CCN(c3nc(-c4cncnc4)nc4ccccc34)CC2)cc1 | / | 10µM* | / | 8.91µM* | 2.9%
Cc1ccc(S(=O)(=O)N2CCN(c3nc(-c4ncccn4)nc4ccccc34)CC2)cc1 | / | 11.2µM* | / | ? | 1.7%
Cc1ccc(S(=O)(=O)N2CCN(c3nc(-n4c(=O)[nH]c5ccccc54)nc4ccccc34)CC2)cc1 | / | 12.6µM* | / | 11.2µM* | /
CCOC(=O)COc1ccc(/C=C/[N+](=O)[O-])c(OCC(=O)OCC)c1 | / | 20.6µM* | ? | 11.6µM* | -2.0%
CCOC(=O)COc1ccc2ccccc2c1/C=C/[N+](=O)[O-] | -20.9% | 3.66µM* | ? | 5.17µM* | -4.6%
CCOC(=O)COc1ccc(C(=O)c2ccccc2)c(O)c1 | 2.4% | -11.3% | 4.5% | 1.0% | -5.2%
CCOc1ccccc1/C=N/Nc1ccccc1[N+](=O)[O-] | 3.5% | -24.2% | -7.1% | 0.7% | 5.2%
CCOc1ccc(/C=C/[N+](=O)[O-])c2ccccc12 | / | 2.91µM* | ? | 2.91µM* | 9.8%
O=[N+]([O-])/C=C/c1c(OCc2ccccc2)ccc2ccccc12 | / | / | -14.9% | / | -0.9%
O=C(COC(=O)CSc1ccc([N+](=O)[O-])cc1)NCc1cccs1 | 2.3% | -22.0% | / | -15.8% | /
O=c1[nH]c(N/N=C/c2ccc(O)cc2)nc2ccccc12 | -9.4% | 23.1µM* | -45.2% | 25.9µM* | 0.6%
C=CCn1c(N/N=C/c2ccc(O)cc2)nc2ccccc2c1=O | ? | 14.6µM* | -41.4% | -36.6% | 7.9%
O=C(CSCn1nnc2c(=O)[nH]c(Cc3ccc(F)cc3)nc21)Nc1ccccc1 | / | 6.4% | -6.8% | -0.5% | 8.6%
O=C(NNC(=O)c1ccc[nH]1)Nc1cc(Cl)cc(Cl)c1 | -1.1% | -28.2% | -21.2% | -21.1% | /
CC1=NN(c2ccccc2)C(=O)/C1=C/c1ccc(-c2ccc(C)c(C(=O)O)c2)o1 | 1.2% | ? | / | 3.1% | /
CC1=NN(c2ccc(Cl)c(C(=O)O)c2)C(=O)/C1=C\c1ccc(-c2ccc(C(=O)O)cc2)o1 | -0.5% | -3.0% | -13.3% | -8.0% | 79.4µM*
Cc1ccc(N2NC(=O)/C(=C/c3ccc(-c4ccc(Cl)c(C(=O)O)c4)o3)C2=O)cc1C | 10.3% | 2.9% | -1.4% | 4.6% | /
CC1(C)OC(=O)C(=Cc2ccc(-c3ccc(Cl)c(C(=O)O)c3)o2)C(=O)O1 | 4.4% | 15.2% | -2.0% | 0.1% | 50.1µM*
CC(OC(=O)CC1CC2CCC1C2)C(=O)Nc1cccc(S(=O)(=O)N2CCOCC2)c1 (configuration not stated) | 1.0% | -15.4% | / | -25.5% | -15.4%
CN(C)c1ccc(/C=C/c2ccnc3ccccc23)cc1[N+](=O)[O-] | / | -11.1% | / | -2.5% | /
CN(C)c1ccc(/C=C/c2ccnc3ccccc23)cc1C=O | / | 10µM* | / | 15.8µM* | /
CN(C)c1ccc(/C=C/c2ccnc3ccccc23)cc1O | / | 10µM* | / | 11.2µM* | /
CCc1cc(/C=C/c2ccnc3ccccc23)ccc1N(C)C | / | 2.82µM* | / | 5.01µM* | /
CCOc1ccc(/C=C/c2ccnc3ccccc23)cc1OCC | / | 11.2µM* | / | 10µM* | /
CCC(CCC(=O)Nc1nncs1)C(=O)O (configuration not stated) | / | / | -1.9% | / | 3.5%
COc1cc(OC)cc(-c2c(Sc3ccccc3)c3cc(-c4ccc(OC)nc4)ccc3n2C)c1 | / | ? | / | -23.8% | /
CCOc1ccc2nc(NC(=O)c3nc(SCc4ccccc4F)ncc3Cl)sc2c1 | / | ? | 1.1% | -26.2% | -7.0%
CNC(=O)COC(=O)/C=C/c1nc2ccccc2s1 | -7.8% | ? | -2.3% | 2.5% | 2.5%
Cc1cc(/C=C2\C=Cc3ccccc32)ccc1N(C)C | / | -20.7% | / | ? | /
CN(C)c1ccc(/C=C/c2nc3ccccc3s2)cc1Cl | / | 2.82µM* | / | 5.01µM* | /

Six neighbouring records from above, for reference:
SMILES | uPA generation | TDP1 cell noCPT | miR-21 FLuc | DT40 TDP1 CPT | TDP1 inh
CCC(CCC(=O)Nc1nncs1)C(=O)O (configuration not stated) | / | / | -1.9% | / | 3.5%
COc1cc(OC)cc(-c2c(Sc3ccccc3)c3cc(-c4ccc(OC)nc4)ccc3n2C)c1 | / | ? | / | -23.8% | /
CCOc1ccc2nc(NC(=O)c3nc(SCc4ccccc4F)ncc3Cl)sc2c1 | / | ? | 1.1% | -26.2% | -7.0%
CNC(=O)COC(=O)/C=C/c1nc2ccccc2s1 | -7.8% | ? | -2.3% | 2.5% | 2.5%
Cc1cc(/C=C2\C=Cc3ccccc32)ccc1N(C)C | / | -20.7% | / | ? | /
CN(C)c1ccc(/C=C/c2nc3ccccc3s2)cc1Cl | / | 2.82µM* | / | 5.01µM* | /

The listing continues.
SMILES | uPA generation | TDP1 cell noCPT | miR-21 FLuc | DT40 TDP1 CPT | TDP1 inh
Cc1cc(/C=C/c2nc3ccccc3s2)ccc1N(C)C | / | 1µM* | / | 1.41µM* | /
Cc1ccc(S(=O)(=O)CCC(=O)OCC(=O)Nc2cc(S(=O)(=O)N3CCOCC3)ccc2Cl)cc1 | 1.3% | -26.4% | / | 1.9% | /
CCOC(=O)C1Nc2ccc(C(F)(F)F)cc2C2c3ccccc3CC12 (configuration not stated) | ? | 16.4µM* | / | 18.4µM* | /
CCOC(=O)C1Nc2ccc(OC(F)(F)F)cc2C2C=CCC12 (configuration not stated) | 0.3% | ? | / | ? | /
CCOC(=O)C1Nc2ccccc2C2C(O)C(O)CC12 (configuration not stated) | ? | ? | / | 29.1µM* | /
CC(C)n1c(O)c(N=NC(=O)C2COc3ccccc3O2)c2ccccc21 (configuration not stated) | 1.8% | ? | -0.1% | ? | 10.8%
O=C1NC(c2ccccc2)=C(c2ccc3ccccc3n2)C(c2ccccc2)N1 (configuration not stated) | 7.0% | 25.9µM* | -17.3% | ? | 7.9%
O=C1NC(c2ccccc2)=C(c2ccc3ccccc3n2)C(c2ccc(F)cc2)N1 (configuration not stated) | -4.8% | ? | -5.7% | ? | 5.7%
Cc1cccc(N(C)S(=O)(=O)c2ccc3c(c2)C(C)(C)C(=O)N3C)c1 | 7.1% | ? | 0.8% | ? | /
N#Cc1ccc(N2CCN(C(=O)c3cccs3)CC2)c(F)c1 | 1.8% | ? | -22.0% | -12.8% | 6.0%
